Results from US8637312B2, “Mammalian culture media with polyamine and iron” (Cellca GmbH, priority 2008, dated 2014).

Tested on: CHO DG44 host cell line
Experiment: Batch culture of antibody producing CHO clone, cell growth
Format: cell-based, Chinese hamster
Details: Example 4, FIG. 4, in the presence of 40 mg/l spermine
Method: Transfectants were amplified using MTX in culture medium.
In this way cells were cultured in several passages.
The basal medium further comprises fatty acids and nucleotides.
Cells were cultured for 1 to 4 days. […] Thus, culture duration was approximately 10 to 18 days.
The cell pellet was resuspended in the corresponding media.

iron (III) pyrophosphate hydrate
tolerability of extremely high iron concentration to cells: tolerable
